# Compound activity (PubChem BioAssay)
# ARNT TACC3 PPI = disruptors of ARNT/TACC3 protein interaction, primary screen, biochemical, AlphaScreen, single concentration | 390,000 compounds, 0.66% hits | inhibition, % at 9.99 µM | Transforming acidic coiled-coil-containing protein 3 (Homo sapiens), Q9Y6A5 | AlphaScreen His-ARNT PAS-B/GST-TACC3 binding, luminescence; TACC3 fragment carries E629A point mutation;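 active = mean inhibition of replicates at least 50% and at least half of replicates each reaching 50%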;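 also: 0% = complete ARNT plus TACC3 wells and 100% = ARNT alone without TACC3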
# FGF22 binding = binders of human FGF22 protein, primary screen, FGF22 synaptogenesis inhibitor project, biophysical, thermal shift, single point. recombinant FGF22 thermal shift, SYPRO orange fluorescence; percent of sucrose octasulfate shift, DMSO zero. 340,000 compounds, 1.5% hits. activity (Tm shift, normalised), % at 9.99 µM;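 active = mean Tm shift, scaled 0 neutral to 100 positive control, at about 1.3% or above, every replicate too, limit read from the data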
# Yeast UUG start-1 = alters start codon recognition fidelity in yeast; AID 602363; activity score, % at 18.7 µM; 350,000 tested, 0.13% active; S. cerevisiae UUG-firefly luciferase reporter, luminescence/redox ratio;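 active means replicate mean at a twofold rise or more, about +100% in these data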;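 further: firefly luciferase made from a UUG start codon reports start codon fidelity; reporter light over untreated wells divided by growth signal over untreated wells; some hits fall short of that in this replicate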
# PDI inh = inhibitors of human PDI, primary screen, biochemical, turbidity, single point, plate reader | Protein disulfide-isomerase (Homo sapiens), P07237 | PDI insulin aggregation turbidity, A650, 90 min | inhibition, % at 10 µM | 350,000 compounds, 0.052% hits | AID 588391, 2011;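 active = mean inhibition across replicates of 30% or more, whatever share of single replicates reach that level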
# ERp5 inh = inhibitors of ERp5-driven insulin aggregation, primary screen, biochemical, turbidity, absorbance 650 nm, single point. 90 min. inhibition, % at 9.99 µM. 350,000 compounds, 0.05% hits. AID 651711, 2012;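 active = mean replicate inhibition above about 25%, with every replicate also reaching it, limit read from the data, passing the limit was not always enough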
# PglD DTNB = C. jejuni PglD acetyltransferase inhibitors, primary screen, biochemical, DTNB colorimetric, single point | UDP-N-acetylbacillosamine N-acetyltransferase PglD (Campylobacter jejuni) | purified PglD enzyme, DTNB colorimetric CoA detection | inhibition, % at 12.5 µM | 360,000 compounds, 0.098% hits | AID 602405, 2012; in the data active = inhibition above about 16%, passing the limit was not always enough
# Yeast UUG start-2 = enhancers of UUG start codon usage in yeast, dose response, S. cerevisiae, UUG firefly luciferase, cherry-pick, set 2 | shares compounds with Yeast UUG start-1 | luminescence, 4 h; 100% means double the DMSO signal | activation, % at 38 µM | 540 tested, under 10 active;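 active = signal increase whose fitted curve reaches an absolute level of 40 at a concentration under 10 µM; inactive = activity opposite to the expected increase, or the rest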
# * = called active by the depositor; i = inactive; . = no result. Hits are enriched below; roughly 1.9% of the tested compounds scored in any of these assays.
# Each structure is followed by: ARNT TACC3 PPI	FGF22 binding	Yeast UUG start-1	PDI inh	ERp5 inh	PglD DTNB	Yeast UUG start-2
(1) COC(=O)CSc1nnc(-c2sc3ccccc3c2Cl)o1
    -5.6	.	564.7*	-1.3	.	8.4	-4.7
(2) N#CCSc1nnc(-c2sc3ccccc3c2Cl)o1
    -7.1	.	.	-8.4	.	.	-1.0
(3) COC(=O)CSc1nnc(-c2c[nH]c3ccccc23)o1
    -0.6	0.1	-8.2	2.9	5.4	-3.2	.
(4) Cc1occc1C(=O)Nc1ccccc1NC(=O)c1ccoc1C
    -6.3	.	197.9*	5.2	.	7.7	-2.4
(5) COC(=O)c1cn(NC(=O)Cc2ccc(OC)c(OC)c2)c(=O)c2ccccc12
    .	-0.2	478.6*	-0.7	-3.5	4.0	-0.9
(6) C[C@H]1CCCCO[C@H](CN(C)C(=O)Nc2ccccc2)[C@@H](C)CN([C@@H](C)CO)C(=O)c2cc(NC(=O)Nc3cccc4ccccc34)ccc2O1
    -11.0	.	-3.7	.	-4.8	-1.9	.
(7) CCCNC(=O)N1C[C@H](C)[C@H](OC)CN(C)C(=O)c2ccc(NC(C)=O)cc2OC[C@@H]1C
    -4.4	0.1	1.2	.	-3.7	7.6	.
(8) CN1CCN(CCC2Oc3cc([N+](=O)[O-])ccc3NC2=O)CC1 (centres undefined)
    -2.6	0.0	.	7.0	-3.2	.	15.8
(9) O=C1Nc2ccc([N+](=O)[O-])cc2OC1CCN1CCN(c2ccccc2)CC1 (centres undefined)
    34.5	-0.2	-24.6	8.1	3.0	1.4	-5.8
(10) O=C1Nc2ccc([N+](=O)[O-])cc2OC1CCN1CCOCC1 (centres undefined)
    -1.0	0.1	-11.3	-3.2	-4.3	2.4	5.9
(11) CO[C@H]1CN(C)C(=O)c2cc(NS(C)(=O)=O)ccc2OC[C@H](C)N(Cc2cncnc2)C[C@@H]1C
    -4.8	0.0	.	.	1.0	1.8	.
(12) CCCC#Cc1cnc2c(c1)C(=O)N([C@@H](C)CO)C[C@H](C)[C@H](CN(C)C(=O)C1CCOCC1)O2
    -7.7	-0.1	-3.4	.	10.7	-4.4	.
(13) C[C@H](CO)N1C[C@H](C)[C@@H](CN(C)S(C)(=O)=O)Oc2ccc(NC(=O)Cc3ccccc3)cc2C1=O
    -5.8	0.1	-5.3	.	-1.3	3.6	.
(14) CO[C@@H]1CN(C)C(=O)c2ccc(NC(=O)C3CCC3)cc2OC[C@@H](C)N(CC2CCCCC2)C[C@H]1C
    .	-0.1	.	.	.	.	.
(15) COc1ccc(S(=O)(=O)Nc2cccc3c2O[C@H](CN(C)S(=O)(=O)c2ccc(F)cc2)[C@@H](C)CN([C@H](C)CO)C3=O)cc1
    .	0.0	-23.3	.	1.2	-4.3	.
(16) COc1ccccc1S(=O)(=O)N[C@H]1CC[C@@H](CCNC(=O)C2CCCC2)O[C@@H]1CO
    -6.2	-0.3	126.9*	.	-2.8	-1.2	i
(17) CC(C)NC(=O)N[C@H]1CC[C@H](CCNC(=O)C2CCC2)O[C@H]1CO
    -18.9	-0.3	135.6*	.	-14.3	0.4	i
(18) Cc1ccc(S(=O)(=O)N[C@H]2CC[C@H](CCNC(=O)C3CCCCC3)O[C@H]2CO)cc1
    -31.6	-0.1	146.1*	.	-4.0	1.0	i
(19) COc1ccccc1S(=O)(=O)N[C@@H]1CC[C@H](CCNC(=O)C2CCCC2)O[C@H]1CO
    -4.0	-0.6	-11.1	.	4.4	-1.9	.
(20) Cc1ccc(S(=O)(=O)N[C@@H]2CC[C@@H](CCNC(=O)C3CCCCC3)O[C@@H]2CO)cc1
    -15.4	0.0	-14.6	.	-2.8	-1.1	.

# Some entries already given with just ARNT TACC3 PPI, ERp5 inh and PglD DTNB:
no.	smiles	ARNT TACC3 PPI	ERp5 inh	PglD DTNB
1	COC(=O)CSc1nnc(-c2sc3ccccc3c2Cl)o1	-5.6	.	8.4
2	N#CCSc1nnc(-c2sc3ccccc3c2Cl)o1	-7.1	.	.
3	COC(=O)CSc1nnc(-c2c[nH]c3ccccc23)o1	-0.6	5.4	-3.2

# Fetched by structure from the list above, 2 records:
# Each structure is followed by: ARNT TACC3 PPI	FGF22 binding	Yeast UUG start-1	PDI inh	ERp5 inh	PglD DTNB	Yeast UUG start-2
(20) Cc1ccc(S(=O)(=O)N[C@@H]2CC[C@@H](CCNC(=O)C3CCCCC3)O[C@@H]2CO)cc1
    -15.4	0.0	-14.6	.	-2.8	-1.1	.
(18) Cc1ccc(S(=O)(=O)N[C@H]2CC[C@H](CCNC(=O)C3CCCCC3)O[C@H]2CO)cc1
    -31.6	-0.1	146.1*	.	-4.0	1.0	i

# Remaining list, next part
# Each structure is followed by: ARNT TACC3 PPI	FGF22 binding	Yeast UUG start-1	PDI inh	ERp5 inh	PglD DTNB	Yeast UUG start-2
(21) CCCNC(=O)N1CCC2(CC1)CN(C(=O)NC1CCCC1)[C@@H](CO)c1[nH]c3cc(OC)ccc3c12
    .	-0.3	.	.	-5.3	.	.
(22) CC(=O)N1CCN(c2ccc([N+](=O)[O-])cc2)CC1
    -8.3	42.7	.	0.9	-2.6	.	0.2
(23) CCOCC(=O)N1CCN(c2ccc([N+](=O)[O-])cc2)CC1
    -23.7	.	1.2	-6.9	.	-13.9	-7.2
(24) CCOCC(=O)N1CCN(c2ccc(F)cc2)CC1
    26.2	.	-15.9	11.4	.	0.6	.
(25) CC(=O)OCC(=O)N1CCN(c2ccc([N+](=O)[O-])cc2)CC1
    -1.1	0.1	.	-2.6	-2.6	.	-4.7
(26) COc1ccc(/C=N/NC(=O)c2ccc3nc[nH]c3c2)c(OC)c1OC
    5.0	0.0	346.3*	-8.6	2.0	4.3	-5.2
(27) COc1cc(OC)c(OC)cc1/C=N/NC(=O)c1ccc2nc[nH]c2c1
    3.9	0.0	.	-0.5	-6.2	.	.
(28) COc1ccccc1CN1[C@@H]2CN(C(=O)C3CCC3)c3ccccc3[C@@H]2[C@@H]1CO
    5.5	.	128.2*	.	.	3.2	i
(29) O=C(C1CCC1)N1C[C@H]2[C@@H](c3ccccc31)[C@H](CO)N2C(=O)Cc1ccccn1
    21.1	-0.2	129.8*	.	-2.5	4.5	i
(30) O=C(C1CCC1)N1C[C@@H]2[C@H](c3ccccc31)[C@H](CO)N2C(=O)Cc1ccccn1
    17.6	0.0	111.4*	.	-4.1	-1.8	i
(31) O=C(C1CCCC1)N1C[C@H]2[C@@H](c3ccccc31)[C@H](CO)N2C(=O)Cc1ccccn1
    23.8	0.4	-7.7	.	-0.3	13.3	.
(32) C[C@@H]1CN([C@H](C)CO)C(=O)c2cccc(NC(=O)c3nc4ccccc4s3)c2O[C@H]1CN(C)C(=O)Nc1ccc(C(F)(F)F)cc1
    -0.8	-0.4	-14.8	.	.	0.3	.
(33) COc1cc(CN2CC3(CCN(C(=O)Nc4c(C)noc4C)CC3)c3c([nH]c4cc(OC)ccc34)[C@H]2CO)cc(OC)c1
    .	-0.5	.	.	3.6	.	.
(34) N#C[C@H]1[C@@H](c2ccccc2-c2cccc(F)c2)[C@@H](CO)N1C(=O)NC1CCCC1
    .	.	.	.	-4.7	.	.
(35) C/C(=N/NC(=O)CNC(=O)c1ccncc1)c1ccco1
    -6.8	-0.1	180.4*	-4.1	-2.4	-1.9	8.4
(36) C/C(=N/NC(=O)CNC(=O)c1ccco1)c1ccco1
    -0.4	-0.3	-30.1	8.7	-1.0	-2.0	.
(37) O=C(NC(=S)Nc1cccc(C(F)(F)F)c1)c1ccc2nonc2c1
    .	-0.1	138.5*	-3.7	9.2	2.0	-8.2
(38) C[C@@H]1CN([C@@H](C)CO)C(=O)c2cc(NS(=O)(=O)c3cn(C)cn3)ccc2O[C@@H](C)CCCCO[C@@H]1CN(C)C(=O)CCC(F)(F)F
    -5.2	0.1	-10.0	.	-0.3	-3.7	.
(39) COc1ccc(C(=O)N2CCCc3ccccc32)cc1OC
    .	0.0	active	-2.1	3.3	0.6	-7.3
(40) COc1cc(C(=O)N2CCCc3ccccc32)cc(OC)c1OC
    .	.	-12.4	-2.3	.	1.3	.
(41) COc1ccccc1Oc1nc2ccccn2c(=O)c1/C=C(\C#N)C(=O)Nc1c(C)n(C)n(-c2ccccc2)c1=O
    3.3	-0.3	111.8*	-8.7	.	-8.5	7.1
